This note sets out measurements from patent publication US11292791B2 (priority 2017, dated 2022).

This test addresses BRD4 (Homo sapiens (Human), UniProt O60885). The conditions noted are these: read-out: BRD4 IC50 (μM gmean).

In the case of `COC(=O)N1c2ccc3c(nc(C(C)Cn4cc(Cl)cn4)n3C3CCNCC3)c2CC[C@@H]1C` (stereo partly shown) [Example 952], the half-maximal inhibitory concentration (IC50) lay in the range of 1 to 1000 µM.

As a reminder, the IC50 is the concentration that inhibits the measured activity by half.
